## scFv variants of Ab-14 (heavy chain) against a SARS-CoV-2 spike peptide

Target peptide (SARS-CoV-2 spike, HR2 region): PDVDLGDISGINAS

Each scFv is VH, a 15-residue (Gly4Ser)3 linker, VL, as in the parent Ab-14, and differs from it in the CDRs of the heavy chain only.
VH: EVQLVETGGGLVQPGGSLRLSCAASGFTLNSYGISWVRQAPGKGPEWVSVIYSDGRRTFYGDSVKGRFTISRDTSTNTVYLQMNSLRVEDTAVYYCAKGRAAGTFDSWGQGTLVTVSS
VL: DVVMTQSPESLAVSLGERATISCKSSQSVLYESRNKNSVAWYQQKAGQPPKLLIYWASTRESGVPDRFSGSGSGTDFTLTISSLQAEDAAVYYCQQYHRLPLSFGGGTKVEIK

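Phage display of a naive human antibody library on the peptide gave the parent. These sequences belong to a second round, designed from the earlier measurements on random variants of the parent. Several design methods are mixed in this list. AlphaSeq pools MATa yeast showing the antibodies with MATalpha yeast showing the peptide. Mating (16 h, 30 °C) was followed by selection of diploids and sequencing of their barcodes. Scores were corrected for input abundance and mapped to Kd with protein pairs of known affinity run in the same pool. Mating was done six times.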

Positions count from residue 1 of the parent VH; N30D puts D in place of N. Variants here have at most six changes. The read-out is the apparent dissociation constant on a log10 scale (nM): the lower, the stronger. Averages over replicates are reported, and they cover detected replicates only. Where no diploid with the target was found in any replicate, the entry reads "nd": below detection, most likely a poor binder, though not proof of it.

Variant N30D/S35H/G61A/K65R gave 1.16 (6 of 6 replicates; controls 1 of 18). With R100Q/A101T the result was 1.73 (2 of 6 replicates; controls 0 of 18). Variant G61H/R100E/A101S showed 2.25 (5 of 6 replicates; controls 0 of 18). With S53A/F59A/A101L the result was -0.12 (6 of 6 replicates; controls 0 of 18). With G61H/R100Q/A101T/S107T the result was 0.35 (6 of 6 replicates; controls 1 of 18). Variant T28V/G61D/R100Q/A101L gave 1.61 (3 of 6 replicates; controls 0 of 18). With T28D/G61V/A101S the result was 1.27 (1 of 6 replicates; controls 0 of 18). With S53R the result was nd (0 of 6 replicates; controls 0 of 18). With S31D/A101M/D106F the result was 1.50 (5 of 6 replicates; controls 0 of 18).

Variant A101H/S107T gave nd (0 of 6 replicates; controls 0 of 18). Variant T28S/G61V/A101T/S107Q showed 0.19 (3 of 6 replicates; controls 0 of 18). Variant T28W/N30D gave nd (0 of 6 replicates; controls 0 of 18). With T28N/R100W the result was 1.84 (3 of 6 replicates; controls 0 of 18). Variant K65R/A101V/D106K showed 1.44 (6 of 6 replicates; controls 1 of 18). For G61D/S63P/R100Q/A101L, the assay gave 1.89 (3 of 6 replicates; controls 0 of 18). Variant S31E/G103V/T104Q/S107Q showed nd (0 of 6 replicates; controls 0 of 18). With T28D/S31D/S107V the result was -0.07 (6 of 6 replicates; controls 0 of 18). Variant S31D/G61K/D106R gave nd (0 of 6 replicates; controls 0 of 18).

Variant R56K/G61S/R100H showed 0.68 (5 of 6 replicates; controls 0 of 18). Variant T28A/Y60V/S107L showed nd (0 of 6 replicates; controls 1 of 18). Variant T28Q/S31E/G61Q/R100Q gave 0.42 (6 of 6 replicates; controls 1 of 18). Variant N30D/G61A/S63R/S107K showed 2.40 (5 of 6 replicates; controls 0 of 18). Variant T28S/S31D/A101C/D106I gave -0.13 (6 of 6 replicates; controls 1 of 18). With S31E/S53A/S107T the result was -0.66 (6 of 6 replicates; controls 0 of 18). With T28S/G61A/R100T/A101Q the result was 0.30 (5 of 6 replicates; controls 0 of 18). Variant R56Y/A101Q/G103D/D106E gave nd (0 of 6 replicates; controls 0 of 18). For T28N/S31N/G61S, the assay gave 0.09 (6 of 6 replicates; controls 0 of 18).

Variant S31E/G61S/D106S gave 1.11 (6 of 6 replicates; controls 1 of 18). Variant T28E/S31D/R100E/A101R gave 0.44 (5 of 6 replicates; controls 0 of 18). For G61K/S63D/A101N, the assay gave 1.32 (4 of 6 replicates; controls 0 of 18). For N30D/A101V/S107V, the assay gave 0.92 (6 of 6 replicates; controls 0 of 18). With T28W/S31E/G61H/D106W the result was nd (0 of 6 replicates; controls 0 of 18). With G61Q/A101F/S107D the result was nd (0 of 6 replicates; controls 0 of 18). Variant T28S/G61A/S63Q/A101T gave 0.45 (6 of 6 replicates; controls 1 of 18). With I51F/G61H/S63Y/R100Q/A101L/T104N the result was nd (0 of 6 replicates; controls 0 of 18). Variant G26S/T28D/F59A/A101T gave -0.27 (6 of 6 replicates; controls 0 of 18).

Variant T28S/G61S/R100Q/A101T/S107T gave -0.08 (6 of 6 replicates; controls 1 of 18). Variant T28R/G61I/R100Q/A101L showed nd (0 of 6 replicates; controls 0 of 18). Variant A101F/G103D/F105D/D106V gave nd (0 of 6 replicates; controls 0 of 18). With S31Q/S53P/G61S/T104F the result was nd (0 of 6 replicates; controls 0 of 18). With Y52D/G61D/R100Q/A101L/G103N the result was nd (0 of 6 replicates; controls 0 of 18). Variant T28E/S31E/G61I/R100H gave -0.39 (5 of 6 replicates; controls 0 of 18). Variant T28D/S31E/A101H gave 0.31 (6 of 6 replicates; controls 0 of 18). Variant T28D/T58C/A101T showed 0.92 (5 of 6 replicates; controls 3 of 18). Variant R56V/G61S/A101E/D106N showed 0.75 (5 of 6 replicates; controls 0 of 18).

Variant G61S/R100K/A101E/A102H showed nd (0 of 6 replicates; controls 0 of 18). Variant T28S/G61A/S63R/A101N gave 1.03 (6 of 6 replicates; controls 0 of 18). For F27E/T28S/F59A, the assay gave nd (0 of 6 replicates; controls 0 of 18). With T28K/R100Q/A101E the result was 1.35 (2 of 6 replicates; controls 0 of 18). With F27N/N30D/A102T/F105A/D106L the result was nd (0 of 6 replicates; controls 0 of 18).

The 3 strongest on average among those seen in every replicate, once more:

With S31E/S53A/S107T the result was -0.66 (6 of 6 replicates; controls 0 of 18).
With G26S/T28D/F59A/A101T the result was -0.27 (6 of 6 replicates; controls 0 of 18).
With T28S/S31D/A101C/D106I the result was -0.13 (6 of 6 replicates; controls 1 of 18).

The authors averaged sequences with at least three values out of six and counted those with two or fewer as poor binders. Background: pairings of all heavy chain designs with three empty control strains gave a value in 1% of cases (median 2.08, 5th percentile 0.84). Values in that range, when seen in few replicates, are hard to tell from nonspecific mating. For each scFv, signals with the empty controls are counted beside the result. Of ten entries with the parent sequence, four were seen in most replicates (averages 0.34 to 2.37), three in one and three in none, so single entries are noisy. A sequence measured in both rounds can read differently, since the two assays cover different ranges.

Source: Li et al. 2023 (doi:10.1038/s41467-023-39022-2), MIT Lincoln Laboratory and A-Alpha Bio; data file from the FLAb repository.